PubChem BioAssay AID540303 (National Center for Advancing Translational Sciences (NCATS), 2011)
Only a part is listed here, and it is no random draw. Some of these compounds have results that are not shown, active ones among them. Records with an inconclusive call do not appear. Activity calls are given as the source filed them. The call rests on the fitted dose curve; in most records, active means well fitted inhibition curve with a large enough effect; inconclusive means small, poorly fitted or top-dose-only effect; inactive means no such curve, though single readings can be large or run the other way; tested in mouse RAW 264.7 cells.

Experiment: qHTS for Inhibitors of Cell Surface uPA Generation; further: nearly all actives have a fitted effect of over 55% in size
Conditions: cell surface uPA generation assay; at 38.3 µM (top of the series)
Source text: The overall objective of this project is to perform a quantitative high throughput screen (qHTS) to identify novel compounds that inhibit the generation of cell surface urokinase activity. The urokinase plasminogen activator (uPA) is one of the two primary endogenous systems that mediate plasminogen activation into plasmin. Members of this system, including uPA and its receptor (uPAR), are overexpressed in several malignant tumors. This system plays a major role in adhesion, migration, invasion and metastasis of cancer cells. Small molecule inhibitors of the uPA system will serve as probes to understand the molecular mechanisms of the uPA cascade and better understanding the microenvironmental circumstances that facilitate the activation of plasminogen by uPA, and finally may provide novel candidate agents for anticancer drug therapy.
[…] […] Upon inhibition of the uPA activation cascade, the subsequent cell surface uPA activity-dependent translocation of LF into the cytoplasm is inhibited. ATP-Lite is used to measure intracellular ATP concentrations, which remain increased if LF entry into the cytoplasm is inhibited. This validation assay was performed using a small set of validation compounds.
NIH Chemical Genomics Center [NCGC]
NIH Molecular Libraries Probe Centers Network [MLPCN]
Assay Submitter (PI): Thomas Bugge, National Institute of Dental and Craniofacial Research, NIH
Cultured RAW 264.7 were dispensed into 1536-well clear bottom, white walled tissue culture plates at a density of 4000 cells/well and were incubated overnight (12-16 h) at 37 C in a 5% CO2 incubator. Serially diluted compounds in 23 nl DMSO were added to cells. […] Compound and reagent-treated plates were incubated for 24 h at 37 C in a 5% CO2 incubator. Perkin Elmer ATPlitetrade mark 1 step (3 ul) was then added to each well. Luminescence was detected using a Perkin Elmer ViewLuxtrade mark plate reader.
1.Dispensing RAW 264.7 cells into 1536-well, white walled tissue culture plates at a density of 4000 cells/well (4 uL).
2.Incubation at 37 C in a 5% CO2 incubator overnight.
3.Serially diluting compounds (1:5 serial dilution; 0.0024 uM to […] final concentration) in 23 nl DMSO.
5.Incubating the compound and reagent-treated plates for 24 hours at 37 C in a 5% CO2 incubator.
6.Adding ATP-Lite (3 ul).
7.Reading plates by ViewLux with an exposure length of 5 seconds.
On the % scale 0 is the no-effect control and ±100 the full control effect.

Structure (SMILES) | activity change, negative = inhibition
O=C(NCC1(N2CCCCC2)CCCCC1)c1cc(F)c(F)cc1Cl | inactive: 8.25%
C=CCN1CCN(CCOC(=O)C(O)(c2ccccc2)c2ccccc2)CC1 | inactive: 12%
O=C(NCC1(N2CCCCC2)CCCCC1)c1cccc(Br)c1 | inactive: -6.35%
CCN1CCCC(OC(=O)C2(O)c3ccccc3C=Cc3ccccc32)C1 (stereo not given) | inactive: 0.386%
Cc1cc(C(=O)NCC2(N3CCCCC3)CCCCC2)ccc1[N+](=O)[O-] | inactive: 6.29%
COc1ccc(C(=O)NCC2(N(C)C)CCCCC2)cc1 | inactive: 6.89%
CN(C)c1ccc(C(=O)NCC2(N(C)C)CCCCC2)cc1 | inactive: -4.41%
CN(C)C1CCCC1OC(=O)C(O)(c1ccccc1)c1ccccc1 (stereo not given) | inactive: 7.48%
Cc1ccccc1C(=O)NCC1(N2CCCCC2)CCCCC1 | inactive: 7.38%
CC(C)N1C(=O)CC2(CCN(CCOC(=O)C(O)(c3ccccc3)c3ccccc3)CC2)C1=O | inactive: -2.31%
COc1cc(SC)ccc1C(=O)NCC1(N(C)C)CCCCC1 | inactive: 13.6%
CCN(CC)CC(C)C(C)OC(=O)C(O)(c1ccccc1)c1ccccc1 (stereo not given) | inactive: -0.0686%
Cc1ccc(C(=O)NCC2(N3CCCCC3)CCCCC2)cc1 | inactive: -0.16%
O=C(NCC1(N2CCCCC2)CCCCC1)c1cc([N+](=O)[O-])ccc1Cl | inactive: -3.29%
CN1[C@@H]2CC[C@H]1CC(OC(=O)C(O)(c1ccccc1)c1ccccc1)C2 (stereo not given in full) | inactive: 1.53%
COc1ccc(Br)c(C(=O)NCC2(N3CCCCC3)CCCCC2)c1 | inactive: 10.7%
CN(C)c1cccc(C(=O)NCC2(N(C)C)CCCCC2)c1 | inactive: -0.753%
O=C(OCCN1CCCC1)C(O)(c1ccccc1)c1ccccc1 | inactive: -2.09%
CC(C)Oc1ccc(C(=O)NCC2(N(C)C)CCCCC2)cc1 | inactive: -0.724%
O=C(OC1CN2CCC1CC2)C(CO)(c1ccccc1)c1ccccc1 (stereo not given) | inactive: -0.669%
COc1ccc(Cl)cc1C(=O)NCC1(N(C)C)CCCCC1 | inactive: 0.126%
COc1cccc(C(=O)NCC2(N3CCCCC3)CCCCC2)c1 | inactive: 1.47%
O=C(NCC1(N2CCCCC2)CCCCC1)c1cccc(Cl)c1 | inactive: 3.73%
CN(C)C1(CNC(=O)c2ccc(Br)cc2)CCCCC1 | inactive: -1.86%
COc1cc(C(=O)NCC2(N(C)C)CCCCC2)c([N+](=O)[O-])cc1OC | inactive: 3.18%
